Values of other authors as cited in patent US8236527B2, “Recombinant production of authentic human proteins using human cell expression systems” (Humanzyme Limited, priority 2008, dated 2012).

System: Vesicular Stomatitis virus
Conditions: cited from earlier work

**Q.** With “Rebif: a recombinant interferon-beta-1a product” as the substance, how does the “specific activity (antiviral activity)” value read?
**A.** approximately 270 million international units (MW) of antiviral activity per mg of interferon beta-1a
